# Results published in patent US10117956B2, “Radiolabeled active targeting pharmaceutical composition and the use thereof” (Institute of Nuclear Energy Research Atomic Energy Council, …, priority 2013, dated 2018).
# What was measured:
# [1] = Biodistribution test in mice carrying A549 tumor; assay type: in vivo, mouse; conditions: for Biodistribution, Tumor: A549 tumor
# [2] = Drug dynamics test (WinNonlin, non-compartment model) from blood activity-time curve; assay type: in vivo, mouse; conditions: tail vein injection, mice carrying A549 tumor
# [3] = 0.5 h after tail vein injection
substance,measurement,setting,value
^131I-C225-AuNPs: iodine-131 labeled bioconjugate of antibody C225 and gold nanoparticles,"Biodistribution, Blood",[1]; [3],3.76±0.98 % ID/g
same,"Biodistribution, Heart",[1]; [3],0.91 ± 0.12 % ID/g
same,"Biodistribution, Kidney",[1]; [3],3.80 ± 0.65 % ID/g
same,"Biodistribution, Large intestine",[1]; [3],1.15 ± 0.42 % ID/g
same,"Biodistribution, Liver",[1]; [3],19.47 ± 1.47 % ID/g
same,"Biodistribution, Lung",[1]; [3],4.87 ± 2.52 % ID/g
same,"Biodistribution, Medulla",[1]; [3],6.58 ± 2.22 % ID/g
same,"Biodistribution, Muscle",[1]; [3],0.57 ± 0.16 % ID/g
same,"Biodistribution, Small intestine",[1]; [3],1.67 ± 0.23 % ID/g
same,"Biodistribution, Spleen",[1]; [3],16.41 ± 3.90 % ID/g
same,"Biodistribution, Urine",[1]; [3],286.9 ± 75.38 % ID/g
same,"Biodistribution, Blood",[1]; 1 h after tail vein injection,3.49 ± 0.15 % ID/g
same,"Biodistribution, Heart",[1]; 1 h after tail vein injection,1.13 ± 0.17 % ID/g
same,"Biodistribution, Large intestine",[1]; 1 h after tail vein injection,1.13 ± 0.21 % ID/g
same,"Biodistribution, Liver",[1]; 1 h after tail vein injection,17.31 ± 1.39 % ID/g
same,"Biodistribution, Lung",[1]; 1 h after tail vein injection,6.66 ± 3.72 % ID/g
same,"Biodistribution, Medulla",[1]; 1 h after tail vein injection,5.64 ± 2.37 % ID/g
same,"Biodistribution, Muscle",[1]; 1 h after tail vein injection,0.64 ± 0.05 % ID/g
same,"Biodistribution, Small intestine",[1]; 1 h after tail vein injection,1.63 ± 0.29 % ID/g
same,"Biodistribution, Spleen",[1]; 1 h after tail vein injection,17.75 ± 7.71 % ID/g
same,"Biodistribution, Stomach",[1]; 1 h after tail vein injection,9.14 ± 0.84 % ID/g
same,"Biodistribution, Urine",[1]; 1 h after tail vein injection,309.9 ± 2.61 % ID/g
same,"Biodistribution, Blood",[1]; 2 h after tail vein injection,3.31 ± 1.08 % ID/g
same,"Biodistribution, Heart",[1]; 2 h after tail vein injection,0.99 ± 0.32 % ID/g
same,"Biodistribution, Kidney",[1]; 2 h after tail vein injection,3.08 ± 0.41 % ID/g
same,"Biodistribution, Large intestine",[1]; 2 h after tail vein injection,1.02 ± 0.47 % ID/g
same,"Biodistribution, Liver",[1]; 2 h after tail vein injection,18.64 ± 1.82 % ID/g
same,"Biodistribution, Lung",[1]; 2 h after tail vein injection,3.85 ± 3.95 % ID/g
same,"Biodistribution, Medulla",[1]; 2 h after tail vein injection,3.60 ± 1.37 % ID/g
same,"Biodistribution, Muscle",[1]; 2 h after tail vein injection,0.58 ± 0.33 % ID/g
same,"Biodistribution, Small intestine",[1]; 2 h after tail vein injection,1.89 ± 0.67 % ID/g
same,"Biodistribution, Spleen",[1]; 2 h after tail vein injection,17.91 ± 3.18 % ID/g
same,"Biodistribution, Stomach",[1]; 2 h after tail vein injection,11.24 ± 4.28 % ID/g
same,"Biodistribution, Urine",[1]; 2 h after tail vein injection,169.4 ± 22.38 % ID/g
same,"Biodistribution, Blood",[1]; 4 h after tail vein injection,2.84 ± 0.45 % ID/g
same,"Biodistribution, Heart",[1]; 4 h after tail vein injection,1.03 ± 0.26 % ID/g
same,"Biodistribution, Kidney",[1]; 4 h after tail vein injection,2.47 ± 1.19 % ID/g
same,"Biodistribution, Large intestine",[1]; 4 h after tail vein injection,1.38 ± 0.20 % ID/g
same,"Biodistribution, Liver",[1]; 4 h after tail vein injection,14.15 ± 1.19 % ID/g
same,"Biodistribution, Lung",[1]; 4 h after tail vein injection,3.87 ± 1.15 % ID/g
same,"Biodistribution, Medulla",[1]; 4 h after tail vein injection,3.86 ± 0.86 % ID/g
same,"Biodistribution, Muscle",[1]; 4 h after tail vein injection,0.65 ± 0.15 % ID/g
same,"Biodistribution, Small intestine",[1]; 4 h after tail vein injection,2.24 ± 0.73 % ID/g
same,"Biodistribution, Spleen",[1]; 4 h after tail vein injection,18.65 ± 3.93 % ID/g
same,"Biodistribution, Stomach",[1]; 4 h after tail vein injection,10.86 ± 2.90 % ID/g
same,"Biodistribution, Urine",[1]; 4 h after tail vein injection,75.08 ± 23.02 % ID/g
same,"Biodistribution, Blood",[1]; 24 h after tail vein injection,0.15 ± 0.01 % ID/g
same,"Biodistribution, Heart",[1]; 24 h after tail vein injection,0.05 ± 0.00 % ID/g
same,"Biodistribution, Kidney",[1]; 24 h after tail vein injection,0.91 ± 0.07 % ID/g
same,"Biodistribution, Large intestine",[1]; 24 h after tail vein injection,0.07 ± 0.02 % ID/g
same,"Biodistribution, Liver",[1]; 24 h after tail vein injection,4.84 ± 0.57 % ID/g
same,"Biodistribution, Lung",[1]; 24 h after tail vein injection,0.73 ± 0.25 % ID/g
same,"Biodistribution, Medulla",[1]; 24 h after tail vein injection,1.70 ± 0.64 % ID/g
same,"Biodistribution, Muscle",[1]; 24 h after tail vein injection,0.02 ± 0.01 % ID/g
same,"Biodistribution, Small intestine",[1]; 24 h after tail vein injection,0.09 ± 0.04 % ID/g
same,"Biodistribution, Spleen",[1]; 24 h after tail vein injection,6.09 ± 0.34 % ID/g
same,"Biodistribution, Urine",[1]; 24 h after tail vein injection,4.43 ± 1.31 % ID/g
same,"Biodistribution, Tumor",[1]; [3],1.75 ± 0.49 % ID/g
same,"Biodistribution, Tumor",[1]; 1 h after tail vein injection,1.69 ± 0.20 % ID/g
same,"Biodistribution, Tumor",[1]; 2 h after tail vein injection,1.46 ± 0.71 % ID/g
same,"Biodistribution, Tumor",[1]; 4 h after tail vein injection,1.66 ± 0.42 % ID/g
same,"Biodistribution, Tumor",[1]; 24 h after tail vein injection,0.11 ± 0.02 % ID/g
same,AUCinf,[2],44.34 h × % ID/mL
same,AUClast,[2],43.25 h × % ID/mL
same,Cmax,[2],3.76 % ID/mL
